Earlier results, collected in US6086915A, “Compositions and methods of adjusting steroid hormone metabolism through phytochemicals” (priority 1998, dated 2000).

Conditions: in vivo; cited from earlier work

Substance: d-α-Tocopheryl Polyethylene Glycol-1000 Succinate [TPGS]
- uptake of vitamin D and cyclosporine: increase the uptake of vitamin D and poorly soluble drugs such a cyclosporine
